Measured values published in PMC9014295 (Frontiers in Pharmacology, 2022).

Tested on: zebrafish fosab gene
Assay: RNA-seq analysis of zebrafish larvae liver (fosab)
Format: in vivo, Danio rerio
Details: 2 mM, exposed 3 dpf, collected 6 dpf
Procedure: As previously described ([Han et al., 2018a]), the process of ribonucleic acid sequencing (RNA-seq) analysis was carried out by CapitalBio Corporation (Beijing, China). […] Cytoscape software was employed to map the drug–pathway network.

CC[C@H]1OC(=O)[C@H](C)[C@@H](O[C@H]2C[C@@](C)(OC)[C@@H](O)[C@H](C)O2)[C@H](C)[C@@H](O[C@@H]2O[C@H](C)C[C@H](N(C)C)[C@H]2O)[C@](C)(O)C[C@@H](C)CN(C)[C@H](C)[C@@H](O)[C@]1(C)O [Azithromycin]
Fold change of fosab gene (RNA-seq): 3.27
